# Most of the highest values are listed elsewhere, so they are rarer here than in the full data.
# Test system: mPer2Luc MEF
# Assay: PER2::LUC luminescence relative to vehicle control (fold of vehicle); higher = higher PER2::LUC reporter signal
# Settings: 10 µM
# Summary of the method: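 The reported values are PER2::LUC luminescence as fold of vehicle control in mouse embryonic fibroblasts carrying the mPer2Luc reporter. Cells were seeded at ~3000 per well in 384-well plates in DMEM with 10% FBS at 37 °C and 5% CO2, and compounds were added at 10 μM 48 h later. ONE-Glo luminescence was read 24 h and 30 h after treatment.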
SMILES,PER2::LUC luminescence (time after treatment 24 h),PER2::LUC luminescence (time after treatment 30 h)
NCc1ccc(OCCCc2sc(-c3ccc4c(c3)/C(=N/Nc3nc5ccccc5s3)CCC4)nc2C(=O)O)cc1,0.883,0.807
COc1c2ccccc2nc2occc12,1.14,1.07

# Source: the supplement of paper PMC9334596
